## CycPeptMPDB entries from one study

Collected by the curators of CycPeptMPDB (Li et al. 2023) from Kelly et al. 2021, doi:10.1021/jacs.0c06115.

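The data file gives no further conditions (lipid, pH, time, direction or concentration), and values from different papers need not be comparable. The list need not hold all peptides of the study. Peptides that the database sets to -10, its floor, are left out.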

PAMPA is the parallel artificial membrane permeability assay, which has no cells and reads passive diffusion.
MDCK values are permeabilities across Madin-Darby canine kidney cell monolayers.
Values are log10 P with P in cm/s, so -5 is more permeable than -7.
Cells with "–" have no entry in this list.

| SMILES | PAMPA (log10 cm/s) | MDCK (log10 cm/s) |
|---|---|---|
| CC(=O)N1CCC[C@@H]1C(=O)N(C)[C@@H](CC(C)C)C(=O)N[C@@H]1C(=O)N[C@H](CC(C)C)C(=O)N(C)[C@@H](CC(C)C)C(=O)N[C@@H](CC(C)C)C(=O)N[C@@H](C)C(=O)N[C@H](CC(C)C)C(=O)N2CCC[C@H]2C(=O)O[C@@H]1C | -6.12 | – |
| CC(=O)N1CCC[C@H]1C(=O)N[C@@H]1C(=O)N[C@H](CC(C)C)C(=O)N(C)[C@H](CC(C)C)C(=O)N(C)[C@H](CC(C)C)C(=O)N(C)[C@H](CC(C)C)C(=O)N[C@H](C)C(=O)N[C@@H](CC(C)C)C(=O)N2CCC[C@@H]2C(=O)O[C@@H]1C | -5.36 | – |
| CC(=O)N1CCC[C@@H]1C(=O)N(C)[C@H](CC(C)C)C(=O)N[C@@H]1C(=O)N(C)[C@@H](CC(C)C)C(=O)N[C@@H](CC(C)C)C(=O)N[C@H](CC(C)C)C(=O)N[C@H](C)C(=O)N[C@H](CC(C)C)C(=O)N2CCC[C@H]2C(=O)O[C@@H]1C | -6.69 | – |
| CC(=O)N1CCC[C@@H]1C(=O)N(C)[C@@H](CC(C)C)C(=O)N[C@@H]1C(=O)N(C)[C@@H](CC(C)C)C(=O)N[C@@H](CC(C)C)C(=O)N[C@H](CC(C)C)C(=O)N[C@H](C)C(=O)N[C@H](CC(C)C)C(=O)N2CCC[C@H]2C(=O)O[C@@H]1C | -6.75 | – |
| CC(=O)N1CCC[C@@H]1C(=O)N(C)[C@H](CC(C)C)C(=O)N[C@@H]1C(=O)N[C@H](CC(C)C)C(=O)N[C@@H](CC(C)C)C(=O)N(C)[C@H](CC(C)C)C(=O)N(C)[C@@H](C)C(=O)N[C@H](CC(C)C)C(=O)N2CCC[C@H]2C(=O)O[C@@H]1C | -5.30 | – |
| CC(=O)N1CCC[C@H]1C(=O)N(C)[C@@H](CC(C)C)C(=O)N[C@@H]1C(=O)N[C@@H](CC(C)C)C(=O)N[C@H](CC(C)C)C(=O)N(C)[C@@H](CC(C)C)C(=O)N(C)[C@@H](C)C(=O)N[C@@H](CC(C)C)C(=O)N2CCC[C@H]2C(=O)O[C@@H]1C | -6.44 | – |
| CC(=O)N1CCC[C@H]1C(=O)N(C)[C@@H](CC(C)C)C(=O)N[C@@H]1C(=O)N(C)[C@H](CC(C)C)C(=O)N(C)[C@H](CC(C)C)C(=O)N[C@H](CC(C)C)C(=O)N(C)[C@@H](C)C(=O)N[C@@H](CC(C)C)C(=O)N2CCC[C@H]2C(=O)O[C@@H]1C | -5.30 | – |
| CC(=O)N1CCC[C@@H]1C(=O)N(C)[C@H](CC(C)C)C(=O)N[C@@H]1C(=O)N(C)[C@@H](CC(C)C)C(=O)N[C@@H](CC(C)C)C(=O)N[C@@H](CC(C)C)C(=O)N(C)[C@@H](C)C(=O)N[C@@H](CC(C)C)C(=O)N2CCC[C@@H]2C(=O)O[C@@H]1C | -6.57 | – |
| CC(=O)N1CCC[C@@H]1C(=O)N(C)[C@@H](CC(C)C)C(=O)N[C@@H]1C(=O)N(C)[C@@H](CC(C)C)C(=O)N[C@H](CC(C)C)C(=O)N[C@@H](CC(C)C)C(=O)N[C@@H](C)C(=O)N[C@@H](CC(C)C)C(=O)N2CCC[C@H]2C(=O)O[C@@H]1C | -6.78 | – |
| CC(=O)N1CCC[C@H]1C(=O)N(C)[C@@H](CC(C)C)C(=O)N[C@@H]1C(=O)N(C)[C@H](CC(C)C)C(=O)N[C@H](CC(C)C)C(=O)N[C@@H](CC(C)C)C(=O)N[C@@H](C)C(=O)N[C@H](CC(C)C)C(=O)N2CCC[C@H]2C(=O)O[C@@H]1C | -6.35 | – |
| CC(=O)N1CCC[C@@H]1C(=O)N(C)[C@@H](CC(C)C)C(=O)N[C@@H]1C(=O)N[C@H](CC(C)C)C(=O)N[C@@H](CC(C)C)C(=O)N[C@H](CC(C)C)C(=O)N(C)[C@@H](C)C(=O)N[C@H](CC(C)C)C(=O)N2CCC[C@H]2C(=O)O[C@@H]1C | -6.28 | – |
| CC(=O)N1CCC[C@H]1C(=O)N(C)[C@H](CC(C)C)C(=O)N[C@@H]1C(=O)N[C@@H](CC(C)C)C(=O)N[C@H](CC(C)C)C(=O)N[C@H](CC(C)C)C(=O)N[C@@H](C)C(=O)N[C@H](CC(C)C)C(=O)N2CCC[C@H]2C(=O)O[C@@H]1C | -6.59 | – |
| CC(=O)N1CCC[C@@H]1C(=O)N(C)[C@H](CC(C)C)C(=O)N[C@@H]1C(=O)N[C@@H](CC(C)C)C(=O)N[C@H](CC(C)C)C(=O)N[C@H](CC(C)C)C(=O)N[C@H](C)C(=O)N[C@H](CC(C)C)C(=O)N2CCC[C@H]2C(=O)O[C@@H]1C | -7.26 | – |
| CC(=O)N1CCC[C@H]1C(=O)N(C)[C@@H](CC(C)C)C(=O)N[C@@H]1C(=O)N(C)[C@H](CC(C)C)C(=O)N(C)[C@@H](CC(C)C)C(=O)N[C@@H](CC(C)C)C(=O)N(C)[C@@H](C)C(=O)N[C@H](CC(C)C)C(=O)N2CCC[C@@H]2C(=O)O[C@@H]1C | -5.06 | -4.58 |
| CC(=O)N1CCC[C@H]1C(=O)N(C)[C@H](CC(C)C)C(=O)N[C@@H]1C(=O)N(C)[C@@H](CC(C)C)C(=O)N[C@@H](CC(C)C)C(=O)N[C@H](CC(C)C)C(=O)N[C@@H](C)C(=O)N[C@H](CC(C)C)C(=O)N2CCC[C@H]2C(=O)O[C@@H]1C | -6.12 | – |
| CC(=O)N1CCC[C@H]1C(=O)N(C)[C@@H](CC(C)C)C(=O)N[C@@H]1C(=O)N[C@H](CC(C)C)C(=O)N[C@H](CC(C)C)C(=O)N[C@H](CC(C)C)C(=O)N(C)[C@@H](C)C(=O)N[C@@H](CC(C)C)C(=O)N2CCC[C@H]2C(=O)O[C@@H]1C | -6.06 | – |

The first 2 entries again:

{"smiles": "CC(=O)N1CCC[C@@H]1C(=O)N(C)[C@@H](CC(C)C)C(=O)N[C@@H]1C(=O)N[C@H](CC(C)C)C(=O)N(C)[C@@H](CC(C)C)C(=O)N[C@@H](CC(C)C)C(=O)N[C@@H](C)C(=O)N[C@H](CC(C)C)C(=O)N2CCC[C@H]2C(=O)O[C@@H]1C", "PAMPA (log10 cm/s)": "-6.12"}
{"smiles": "CC(=O)N1CCC[C@H]1C(=O)N[C@@H]1C(=O)N[C@H](CC(C)C)C(=O)N(C)[C@H](CC(C)C)C(=O)N(C)[C@H](CC(C)C)C(=O)N(C)[C@H](CC(C)C)C(=O)N[C@H](C)C(=O)N[C@@H](CC(C)C)C(=O)N2CCC[C@@H]2C(=O)O[C@@H]1C", "PAMPA (log10 cm/s)": "-5.36"}